Assay results reported in ChEMBL document CHEMBL4425100, “Design, Synthesis, and Evaluation of in Vitro and in Vivo Anticancer Activity of 4-Substituted Coumarins: A Novel Class of Potent Tubulin Polymerization Inhibitors” (J Med Chem, 2016).

What was measured:
A2780S [1] = settings: Homo sapiens, 24 h
A2780S [2] = settings: Mus musculus, iv, read-out: TGI

| Compound | pIC50 (A2780S [1]) | inhibition in vivo at 30 mg/kg (A2780S [2]) |
| --- | --- | --- |
| CC(=O)O[C@H]1C(=O)[C@@]2(C)[C@H]([C@H](OC(=O)c3ccccc3)[C@]3(O)C[C@H](OC(=O)[C@H](O)[C@@H](NC(=O)c4ccccc4)c4ccccc4)C(C)=C1C3(C)C)[C@]1(OC(C)=O)CO[C@@H]1C[C@@H]2O [PACLITAXEL] | 7.24 | 82.9% |
| CC[C@]1(O)C[C@@H]2CN(CCc3c([nH]c4ccccc34)[C@@](C(=O)OC)(c3cc4c(cc3OC)N(C)[C@H]3[C@@](O)(C(=O)OC)[C@H](OC(C)=O)[C@]5(CC)C=CCN6CC[C@]43[C@@H]65)C2)C1 [VINBLASTINE] | 7.65 | – |

pIC50: −log10 of the molar value.
